Read-outs that look alike come from different tables or passages of the source.
Tested on: bacterial inoculum
Assay type: cell-based
Settings: for toxicity / delay of the onset of microbial growth: without glutaraldehyde
Protocol: In all experiments, a 10:1 ratio of minimal media to Fischer-Tropsch diesel fuel were prepared and evaluated in 250 ml flasks.
In addition to these experiments, several controls were run without Glutaraldehyde as follows: […]

Which results are given for `NCCO` [MEA, Monoethanolamine]?
Growth, MEA control without glutaraldehyde (1 ppm MEA, Time 0 days): −; Growth, MEA control without glutaraldehyde (1 ppm MEA, Time 1 days): −; Growth, MEA control without glutaraldehyde (1 ppm MEA, Time 2 days): −; Growth, MEA control without glutaraldehyde (1 ppm MEA, Time 3 days): +; Growth, MEA control without glutaraldehyde (1 ppm MEA, Time 7 days): +; Growth, MEA control without glutaraldehyde (1 ppm MEA, Time 9 days): +; Growth, MEA control without glutaraldehyde (1 ppm MEA, Time 14 days): +; Growth, MEA control without glutaraldehyde (10 ppm MEA, Time 0 days): −; Growth, MEA control without glutaraldehyde (10 ppm MEA, Time 1 days): −; Growth, MEA control without glutaraldehyde (10 ppm MEA, Time 2 days): −; Growth, MEA control without glutaraldehyde (10 ppm MEA, Time 3 days): +; Growth, MEA control without glutaraldehyde (10 ppm MEA, Time 7 days): +; Growth, MEA control without glutaraldehyde (10 ppm MEA, Time 9 days): +; Growth, MEA control without glutaraldehyde (10 ppm MEA, Time 14 days): +; Growth, MEA control without glutaraldehyde (100 ppm MEA, Time 0 days): −; Growth, MEA control without glutaraldehyde (100 ppm MEA, Time 1 days): −; Growth, MEA control without glutaraldehyde (100 ppm MEA, Time 2 days): −; Growth, MEA control without glutaraldehyde (100 ppm MEA, Time 3 days): −; Growth, MEA control without glutaraldehyde (100 ppm MEA, Time 7 days): −; Growth, MEA control without glutaraldehyde (100 ppm MEA, Time 9 days): −; Growth, MEA control without glutaraldehyde (100 ppm MEA, Time 14 days): +; Growth, MEA control without glutaraldehyde (500 ppm MEA, Time 0 days): −; Growth, MEA control without glutaraldehyde (500 ppm MEA, Time 1 days): −; Growth, MEA control without glutaraldehyde (500 ppm MEA, Time 2 days): −; Growth, MEA control without glutaraldehyde (500 ppm MEA, Time 3 days): −; Growth, MEA control without glutaraldehyde (500 ppm MEA, Time 7 days): −; Growth, MEA control without glutaraldehyde (500 ppm MEA, Time 9 days): −; Growth, MEA control without glutaraldehyde (500 ppm MEA, Time 14 days): +; toxicity / delay of the onset of microbial growth (high levels in the control (100 ppm and higher)): toxic; toxicity / delay of the onset of microbial growth (low levels in the controls (less than 100 ppm)): not significantly toxic

From patent US6626122B2, “Deactivatable biocides in ballast water” (Chevron U.S.A. Inc, priority 2001, dated 2003)
